Consider 13 molecules from US20250152585A1, “PHARMACEUTICAL COMPOUND” (Duke Street Bio Limited, priority 2022, published 2025).

The chains behind the UniProt entries cited, without tags or fusion partners.
UniProt P09874, whole entry: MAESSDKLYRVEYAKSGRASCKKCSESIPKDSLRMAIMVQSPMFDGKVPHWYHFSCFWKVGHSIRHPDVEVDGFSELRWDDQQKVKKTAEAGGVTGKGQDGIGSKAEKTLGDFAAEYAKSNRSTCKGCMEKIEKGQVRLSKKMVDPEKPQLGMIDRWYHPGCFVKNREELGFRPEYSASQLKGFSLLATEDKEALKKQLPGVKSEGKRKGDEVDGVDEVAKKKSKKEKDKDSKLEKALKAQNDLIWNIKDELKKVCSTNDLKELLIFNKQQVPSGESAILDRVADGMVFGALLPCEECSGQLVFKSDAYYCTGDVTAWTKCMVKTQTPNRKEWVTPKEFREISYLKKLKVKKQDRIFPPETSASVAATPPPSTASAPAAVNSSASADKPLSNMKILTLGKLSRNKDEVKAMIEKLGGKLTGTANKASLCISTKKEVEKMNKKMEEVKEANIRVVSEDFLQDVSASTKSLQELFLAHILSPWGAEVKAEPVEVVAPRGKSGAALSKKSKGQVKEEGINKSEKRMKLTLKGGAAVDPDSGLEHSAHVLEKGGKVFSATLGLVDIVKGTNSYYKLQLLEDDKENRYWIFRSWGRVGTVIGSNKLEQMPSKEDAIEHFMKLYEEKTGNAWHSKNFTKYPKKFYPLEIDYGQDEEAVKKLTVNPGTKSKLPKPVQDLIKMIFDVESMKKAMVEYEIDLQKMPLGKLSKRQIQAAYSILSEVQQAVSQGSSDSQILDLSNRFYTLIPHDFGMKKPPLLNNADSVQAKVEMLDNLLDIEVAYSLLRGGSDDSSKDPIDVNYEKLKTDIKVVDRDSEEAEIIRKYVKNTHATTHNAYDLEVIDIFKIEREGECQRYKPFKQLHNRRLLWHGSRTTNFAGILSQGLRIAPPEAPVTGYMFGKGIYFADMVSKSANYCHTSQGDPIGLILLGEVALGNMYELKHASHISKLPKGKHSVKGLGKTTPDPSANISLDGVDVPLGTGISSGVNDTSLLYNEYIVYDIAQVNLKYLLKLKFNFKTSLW
UniProt Q9UGN5, whole entry: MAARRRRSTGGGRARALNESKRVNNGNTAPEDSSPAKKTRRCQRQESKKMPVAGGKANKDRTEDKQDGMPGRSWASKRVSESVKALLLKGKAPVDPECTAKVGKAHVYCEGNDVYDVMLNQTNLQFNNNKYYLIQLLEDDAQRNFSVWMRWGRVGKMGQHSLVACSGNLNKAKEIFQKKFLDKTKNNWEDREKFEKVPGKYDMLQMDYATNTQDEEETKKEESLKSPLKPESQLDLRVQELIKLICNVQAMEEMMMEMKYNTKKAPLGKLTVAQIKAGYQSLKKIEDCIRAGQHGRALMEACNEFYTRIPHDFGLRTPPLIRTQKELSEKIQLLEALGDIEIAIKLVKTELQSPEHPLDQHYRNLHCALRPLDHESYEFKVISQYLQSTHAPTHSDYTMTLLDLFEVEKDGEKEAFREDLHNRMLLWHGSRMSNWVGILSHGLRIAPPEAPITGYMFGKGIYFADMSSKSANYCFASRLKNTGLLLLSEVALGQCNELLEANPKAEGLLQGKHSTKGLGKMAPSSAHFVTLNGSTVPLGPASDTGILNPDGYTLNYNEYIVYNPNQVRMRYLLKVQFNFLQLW

Like-named read-outs stand apart in the source and are kept apart here.

Test [1] deals with T1, full length N-terminally FLAG-tagged PARP1 (Homo sapiens, UniProt P09874). As to the kind of experiment: PARP1 biochemical DELFIA assay (auto-PARylation). As to conditions: read-out: PARP1 DELFIA.
Test [2] addresses N-terminally FLAG-tagged PARP2 (amino acids 1-583) (Homo sapiens, UniProt Q9UGN5). The experiment in a line: PARP2 probe displacement HTRF assay. The settings on record: read-out: PARP2 HTRF, binned Kd. As to the method: This assay was performed under identical conditions as for PARP1, except that N-terminally FLAG-tagged PARP2 (amino acids 1-583) was used instead of PARP1, and PARP1/2 binding probe was used at 10-fold probe Kd=540 nM. Data analysis was performed identical as for PARP1.

Test [3] has as its target T1, full length N-terminally FLAG-tagged PARP1. The experiment in a line: PARP1 probe displacement HTRF assay. The settings on record: for Selectivity: PARP1 over PARP2, ratio Kd (PARP2)/Kd (PARP1); for Kd: read-out: PARP1 HTRF, binned Kd. On the technique in general: Time-resolved FRET reads energy transfer from a long-lived donor to a nearby acceptor.
Where [4] appears, read: binned IC50, biochemical auto-PARylation assay.
[5] abbreviates: binned IC50, PARP1 biochemical DELFIA assay.

With `CNC(=O)c1ccc(N2CCC(N3CCC(c4cc5cccc(F)c5c(=O)[nH]4)C3)CC2)c(C#N)c1` (single isomer, unassigned) [347b], the IC50 in test [1] (setting [4]) is 10 to 100 nM. In test [2] (probe displacement HTRF), the Kd lay in the range of 1000 to 10000 nM. Further, in test [3] (probe displacement HTRF), the Selectivity entry was “+++ (+++ indicate a value of at least 100)” and the Kd fell in the range of 10 to 100 nM.

On to `CCc1ccc(C2CCN(C3CCN(c4ccc(C(=O)NC)nn4)CC3)C2)[nH]c1=O` (single isomer, unassigned) [Compound 210b], for which the IC50 in test [1] (setting [5]) lay within 100 to 1000 nM. For the same molecule, the results for the Kd in test [2] (PARP2 probe displacement HTRF) and in test [3] (PARP1 probe displacement HTRF) were greater than 10000 nM and 100 to 1000 nM, respectively. Also, the Selectivity entry in test [3] (probe displacement HTRF) is “+ (+ indicates a value of 10 to less than 50)”.

With `CNC(=O)c1ccc(N2CCC(N3CCC(c4cc5cc(O)ccc5c(=O)[nH]4)C3)CC2)cn1` (stereo not shown), the IC50 in test [1] (setting [4]) is less than 10 nM. Moreover, the Kd in test [2] (probe displacement HTRF) fell in the range of 100 to 1000 nM. Moreover, in test [3] (probe displacement HTRF), the Selectivity entry was “+++ (+++ indicate a value of at least 100)” and the Kd was less than 10 nM.

Turning to `CCc1ccc(C2CCN(C3CCN(c4ccc(C(=O)NC)cc4F)CC3)C2)[nH]c1=O` (single isomer, unassigned) [364b], the IC50 in test [1] (setting [4]) was less than 10 nM. The Kd in test [2] (probe displacement HTRF) lay within 100 to 1000 nM. Besides, in test [3] (probe displacement HTRF), the Selectivity result is on record as “++ (++ indicates a value of 50 to less than 100)” and the Kd is less than 10 nM.

As to `CNC(=O)c1ccc(N2CCC(N3CCC(c4nc5c(C(F)(F)F)c[nH]c5c(=O)[nH]4)C3)CC2)cn1` (single isomer, unassigned) [Compound 293a], in test [1] (setting [4]), the IC50 was 100 to 1000 nM. In test [2] (probe displacement HTRF), the Kd is 1000 to 10000 nM. In addition, in test [3] (probe displacement HTRF), the Selectivity result is on record as “− (− indicates a value of less than 10)” and the Kd is 100 to 1000 nM.

As to `CNC(=O)c1ncc(N2CCC(N3CCC(c4cc5cccc(F)c5c(=O)[nH]4)C3)CC2)cc1F` (single isomer, unassigned) [352b], the IC50 in test [1] (setting [4]) is less than 10 nM. Moreover, the Kd in test [2] (probe displacement HTRF) lay within 100 to 1000 nM. Besides, in test [3] (probe displacement HTRF), the Selectivity entry was “++ (++ indicates a value of 50 to less than 100)” and the Kd is less than 10 nM.

In the case of `CNS(=O)(=O)c1ccc(N2CCC(N3CCC(c4cc5ccccc5c(=O)[nH]4)C3)CC2)cc1` (single isomer, unassigned) [348b], the IC50 in test [1] (setting [4]) was in the range of 100 to 1000 nM. Further, the Kd in test [2] (probe displacement HTRF) lay in the range of 100 to 1000 nM. Besides, in test [3] (probe displacement HTRF), the Selectivity entry is “− (− indicates a value of less than 10)” and the Kd lay within 100 to 1000 nM.

As to `CNC(=O)c1ccc(N2CCC(N3CCC(c4cc5cccc(F)c5c(=O)[nH]4)C3)CC2)c(C#N)n1` (single isomer, unassigned) [351a], the IC50 in test [1] (setting [4]) is less than 10 nM. In addition, the Kd in test [2] (probe displacement HTRF) lay in the range of 1000 to 10000 nM. Further, in test [3] (probe displacement HTRF), the Selectivity result is reported as “+++ (+++ indicate a value of at least 100)” and the Kd is less than 10 nM.

For the molecule `CN(C)C(=O)c1ccc(N2CCC(N3CCC(c4nc5ccccc5c(=O)[nH]4)C3)CC2)cn1` (stereo not shown), the IC50 in test [1] (setting [5]) is 100 to 1000 nM.

`CCc1ccc(C2CCN(C3CCN(c4ccc(C(=O)NCCF)nc4F)CC3)C2)[nH]c1=O` (single isomer, unassigned): in test [1] (setting [4]), the IC50 is less than 10 nM. In addition, the Kd in test [2] (probe displacement HTRF) was 100 to 1000 nM; in test [3] (probe displacement HTRF), less than 10 nM. Further, the Selectivity result in test [3] (probe displacement HTRF) is “+++ (+++ indicate a value of at least 100)”.

`CNS(=O)(=O)c1ccc(N2CCC(N3CCC(c4cc5ccccc5c(=O)[nH]4)C3)CC2)cc1` (single isomer, unassigned) [348a]: the IC50 in test [1] (setting [4]) was 10 to 100 nM. The Kd in test [2] (probe displacement HTRF) lay within 100 to 1000 nM. Also, in test [3] (probe displacement HTRF), the Selectivity entry is “− (− indicates a value of less than 10)” and the Kd lay in the range of 10 to 100 nM.

Take `CNC(=O)c1ccc(N2CCC(N3CCC(c4cc5cccc(F)c5c(=O)[nH]4)C3)CC2)c(C#N)c1` (single isomer, unassigned) [347a]: the IC50 in test [1] (setting [4]) was less than 10 nM. The Kd in test [2] (probe displacement HTRF) was in the range of 100 to 1000 nM. Besides, in test [3] (probe displacement HTRF), the Selectivity result is reported as “+++ (+++ indicate a value of at least 100)” and the Kd was less than 10 nM.

Turning to `CNC(=O)c1ccc(N2CCC(N3CCC(c4nc5ccccc5c(=O)[nH]4)CC3)C2)cn1` (stereo not shown), the IC50 in test [1] (setting [5]) fell in the range of 10 to 100 nM. Further, the Kd fell in the range of 100 to 1000 nM in test [2] (PARP2 probe displacement HTRF) and 10 to 100 nM in test [3] (PARP1 probe displacement HTRF). For the same molecule, the Selectivity entry in test [3] (probe displacement HTRF) is reported as “+ (+ indicates a value of 10 to less than 50)”.
